What was measured:
[1] = target: CDK2/cyclin E (Homo sapiens, UniProt P24941); assay: CDK2/cyclin E kinase inhibition; type: biochemical; details: Table 2, purified kinase
[2] = target: CDK2/cyclin A (Homo sapiens, UniProt P24941); assay: CDK2/cyclinA microtiter histone H1 phosphorylation assay; details: read-out: IC50 cdk2/cyclin A; Table 2, purified kinase

**Q.** With “2-(1R-isopropyl-2-hydroxyethyl)-6-(3-chloroanilino)-9-isopropylpurine [Purvalanol A]” as the substance, how does the IC50 [1] read?
**A.** 35 nM

**Q.** What about the IC50 [2] of the same substance?
**A.** 70 nM
